Experimental data published in patent US20240286998A1, “F[…], ANALOGUES THEREOF, AND METHODS USING SAME” (Saint Joseph's University, priority 2021, published 2024).

Protein sequences, listed by entry. Tags and fused reporters are not part of them. Residues count along the entry.
UniProt P28223, whole entry: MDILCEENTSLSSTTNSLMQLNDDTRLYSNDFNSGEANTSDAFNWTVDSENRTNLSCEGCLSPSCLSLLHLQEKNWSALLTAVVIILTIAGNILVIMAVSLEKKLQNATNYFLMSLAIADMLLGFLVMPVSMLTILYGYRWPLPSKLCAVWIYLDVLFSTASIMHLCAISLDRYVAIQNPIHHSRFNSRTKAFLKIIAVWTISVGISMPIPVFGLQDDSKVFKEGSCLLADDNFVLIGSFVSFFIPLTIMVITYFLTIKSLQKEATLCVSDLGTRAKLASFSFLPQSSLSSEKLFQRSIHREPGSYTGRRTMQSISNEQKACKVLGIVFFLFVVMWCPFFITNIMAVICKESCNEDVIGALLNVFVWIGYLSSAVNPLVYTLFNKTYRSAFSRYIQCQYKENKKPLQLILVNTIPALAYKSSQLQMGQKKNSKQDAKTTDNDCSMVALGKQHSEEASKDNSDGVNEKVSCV
UniProt P41595, whole entry: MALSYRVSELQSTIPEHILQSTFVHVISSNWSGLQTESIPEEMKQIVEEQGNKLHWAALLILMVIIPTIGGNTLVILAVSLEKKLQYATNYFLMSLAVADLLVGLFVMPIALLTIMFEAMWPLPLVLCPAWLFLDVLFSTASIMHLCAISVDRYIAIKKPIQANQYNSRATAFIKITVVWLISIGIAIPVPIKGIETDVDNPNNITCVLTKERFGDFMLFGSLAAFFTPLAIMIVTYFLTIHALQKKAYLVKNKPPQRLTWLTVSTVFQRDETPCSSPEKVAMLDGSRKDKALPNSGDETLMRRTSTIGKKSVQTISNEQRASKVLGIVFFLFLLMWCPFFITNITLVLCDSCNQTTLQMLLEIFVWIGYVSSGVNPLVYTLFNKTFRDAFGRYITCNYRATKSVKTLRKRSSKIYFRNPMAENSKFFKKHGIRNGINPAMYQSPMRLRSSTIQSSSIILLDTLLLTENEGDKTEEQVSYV
UniProt P28335, 33-458 limits assumed: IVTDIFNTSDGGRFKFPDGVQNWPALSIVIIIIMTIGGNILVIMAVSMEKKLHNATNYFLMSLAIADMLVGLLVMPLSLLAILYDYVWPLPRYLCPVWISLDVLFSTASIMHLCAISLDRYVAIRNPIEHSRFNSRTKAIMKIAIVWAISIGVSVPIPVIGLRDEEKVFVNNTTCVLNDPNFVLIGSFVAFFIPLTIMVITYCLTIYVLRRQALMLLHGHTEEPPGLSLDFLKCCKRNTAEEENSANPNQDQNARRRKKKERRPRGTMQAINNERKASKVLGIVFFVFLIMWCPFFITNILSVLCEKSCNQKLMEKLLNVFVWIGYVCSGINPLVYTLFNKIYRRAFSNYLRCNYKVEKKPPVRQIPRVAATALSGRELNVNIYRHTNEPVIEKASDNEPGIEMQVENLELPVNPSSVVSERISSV
UniProt P08908, whole entry: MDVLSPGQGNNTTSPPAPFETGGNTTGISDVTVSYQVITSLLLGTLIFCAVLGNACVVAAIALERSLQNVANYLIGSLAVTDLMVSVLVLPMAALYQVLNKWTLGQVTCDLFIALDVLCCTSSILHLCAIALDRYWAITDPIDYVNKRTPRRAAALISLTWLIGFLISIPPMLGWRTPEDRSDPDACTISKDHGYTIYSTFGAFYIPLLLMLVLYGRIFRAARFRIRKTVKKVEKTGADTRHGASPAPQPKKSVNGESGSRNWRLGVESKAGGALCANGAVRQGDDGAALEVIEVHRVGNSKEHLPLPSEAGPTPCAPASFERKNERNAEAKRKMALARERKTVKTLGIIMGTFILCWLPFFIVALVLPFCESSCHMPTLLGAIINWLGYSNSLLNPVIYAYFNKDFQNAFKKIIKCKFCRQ

Experiments:
[1] = biological target: Serotonin 5-HT2A (human) (Homo sapiens (Human), UniProt P28223); conditions: 1 nM [3H]-ketanserin, Cheng-Prusoff, N=1-3
[2] = biological target: 5-HT2A (Homo sapiens (Human), UniProt P28223); conditions: IA = Inactive; N=1-3
[3] = biological target: 5-HT2B (Homo sapiens (Human), UniProt P41595); conditions: IA = Inactive; N=1-3
[4] = biological target: 5-HT2C (Homo sapiens (Human), UniProt P28335); conditions: IA = Inactive; N=1-3
[5] = biological target: 5-HT1A (Homo sapiens (Human), UniProt P08908); conditions: cAMP inhibition, 0.2 μM isoproterenol; IA = Inactive

SMILES: CCN(CC)CCc1c[nH]c2ccc(F)cc12
- 5-HT2A pKi ± SEM [1]: 6.12
- 5-HT2A-Ca2+ FLUX Emax (% 5-HT) [2]: 103.6 ± 0.8 % 5-HT
- 5-HT2A-Ca2+ FLUX pEC50 [2]: 8.71 ± 0.03
- 5-HT2B-Ca2+ FLUX Emax (% 5-HT) [3]: 92.3 ± 1.0 % 5-HT
- 5-HT2B-Ca2+ FLUX pEC50 [3]: 8.69 ± 0.04
- 5-HT2C-Ca2+ FLUX Emax (% 5-HT) [4]: 109.6 ± 2.3 % 5-HT
- 5-HT2C-Ca2+ FLUX pEC50 [4]: 8.45 ± 0.06
- 5-HT1A-cAMP Emax (% 5-HT) [5]: 92.8 ± 1.8 % 5-HT
- 5-HT1A-cAMP pEC50 [5]: 6.84 ± 0.05
